The entries are a selection whose mix differs from that of the whole data set. Activity calls are given as the source filed them. The call rests on the fitted dose curve; in most records, active means well fitted activation curve with a large enough effect; inconclusive means small, poorly fitted or top-dose-only effect; inactive means no such curve, though single readings can be large or run the other way.
These compounds were tested against Galactocerebrosidase (Homo sapiens) (UniProt P54803) (assay: A Novel Cell-Based Assay to Identify Small Molecules for B -Galactocerebrosidase). Conditions: 145M-Twi-hGALC-G270D cells (Twitcher mouse brain line with human GALC G270D), HMU-beta-Gal fluorescence, 48 h; at 57.5 µM (top of the series) unless noted.
Further: 0% is about no effect; nearly all actives have a fitted effect of over 65% in size.

Sequences of proteins named here, by UniProt entry; tags and fusion partners are left off.
UniProt P54803, whole entry G286D: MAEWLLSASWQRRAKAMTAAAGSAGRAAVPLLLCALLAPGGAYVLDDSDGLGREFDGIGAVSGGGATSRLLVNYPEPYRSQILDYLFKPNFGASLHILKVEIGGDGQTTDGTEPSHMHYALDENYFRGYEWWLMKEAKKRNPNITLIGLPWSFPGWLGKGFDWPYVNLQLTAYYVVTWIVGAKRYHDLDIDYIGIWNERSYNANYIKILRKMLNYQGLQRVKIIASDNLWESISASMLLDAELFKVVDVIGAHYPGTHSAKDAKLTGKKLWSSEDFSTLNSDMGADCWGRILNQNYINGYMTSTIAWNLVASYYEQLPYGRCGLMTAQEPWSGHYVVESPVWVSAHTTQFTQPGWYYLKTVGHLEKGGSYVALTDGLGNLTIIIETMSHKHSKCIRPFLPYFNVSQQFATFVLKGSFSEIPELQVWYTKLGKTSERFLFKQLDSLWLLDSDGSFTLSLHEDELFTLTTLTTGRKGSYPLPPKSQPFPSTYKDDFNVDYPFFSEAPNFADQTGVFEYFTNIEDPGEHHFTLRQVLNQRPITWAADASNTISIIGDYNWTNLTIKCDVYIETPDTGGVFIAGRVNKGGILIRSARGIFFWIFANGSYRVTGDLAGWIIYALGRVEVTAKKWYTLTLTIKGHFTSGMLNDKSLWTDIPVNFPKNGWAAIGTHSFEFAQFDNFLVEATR

Row | Structure (SMILES) | activation
1 | OCCSCCO | inactive: -15.9%
2 | Cc1cccc([N+](=O)[O-])c1[N+](=O)[O-] | inactive: -17% [at 114 µM]
3 | CCOP(=O)(CC)Oc1ccc([N+](=O)[O-])cc1 (stereo not given) | inactive: -4.61%
4 | C/C1=C2N=C(/C=C3N=C(/C(C)=C4\[N-][C@@](C)([C@@H]5N=C1[C@](C)(CCC(=O)NC[C@@H](C)OP(=O)([O-])O[C@H]1[C@@H](O)[C@@H](n6cnc7cc(C)c(C)cc76)O[C@@H]1CO)[C@H]5CC(N)=O)[C@@](C)(CC(N)=O)[C@@H]4CCC(N)=O)[C@@](C)(CC(N)=O)[C@@H]\3CCC(N)=O)C(C)(C)[C@@H]/2CCC(N)=O.[C-]#N.[Co+3] | inactive: -13.1%
5 | O=[N+]([O-])c1cccc([N+](=O)[O-])c1 | inactive: -11.4% [at 114 µM]

— PubChem BioAssay AID1159614 (National Center for Advancing Translational Sciences (NCATS), 2016)
